Holding throughout (experiment): ADP-Glo cell-free PI3K kinase activity assay
(In ADP-Glo the light output rises with the ADP produced.)

Sequences of proteins named here, by UniProt entry; tags and fusion partners are left off. A change or cut given only in a name is not applied to a line headed by its entry.
UniProt O00329, whole entry: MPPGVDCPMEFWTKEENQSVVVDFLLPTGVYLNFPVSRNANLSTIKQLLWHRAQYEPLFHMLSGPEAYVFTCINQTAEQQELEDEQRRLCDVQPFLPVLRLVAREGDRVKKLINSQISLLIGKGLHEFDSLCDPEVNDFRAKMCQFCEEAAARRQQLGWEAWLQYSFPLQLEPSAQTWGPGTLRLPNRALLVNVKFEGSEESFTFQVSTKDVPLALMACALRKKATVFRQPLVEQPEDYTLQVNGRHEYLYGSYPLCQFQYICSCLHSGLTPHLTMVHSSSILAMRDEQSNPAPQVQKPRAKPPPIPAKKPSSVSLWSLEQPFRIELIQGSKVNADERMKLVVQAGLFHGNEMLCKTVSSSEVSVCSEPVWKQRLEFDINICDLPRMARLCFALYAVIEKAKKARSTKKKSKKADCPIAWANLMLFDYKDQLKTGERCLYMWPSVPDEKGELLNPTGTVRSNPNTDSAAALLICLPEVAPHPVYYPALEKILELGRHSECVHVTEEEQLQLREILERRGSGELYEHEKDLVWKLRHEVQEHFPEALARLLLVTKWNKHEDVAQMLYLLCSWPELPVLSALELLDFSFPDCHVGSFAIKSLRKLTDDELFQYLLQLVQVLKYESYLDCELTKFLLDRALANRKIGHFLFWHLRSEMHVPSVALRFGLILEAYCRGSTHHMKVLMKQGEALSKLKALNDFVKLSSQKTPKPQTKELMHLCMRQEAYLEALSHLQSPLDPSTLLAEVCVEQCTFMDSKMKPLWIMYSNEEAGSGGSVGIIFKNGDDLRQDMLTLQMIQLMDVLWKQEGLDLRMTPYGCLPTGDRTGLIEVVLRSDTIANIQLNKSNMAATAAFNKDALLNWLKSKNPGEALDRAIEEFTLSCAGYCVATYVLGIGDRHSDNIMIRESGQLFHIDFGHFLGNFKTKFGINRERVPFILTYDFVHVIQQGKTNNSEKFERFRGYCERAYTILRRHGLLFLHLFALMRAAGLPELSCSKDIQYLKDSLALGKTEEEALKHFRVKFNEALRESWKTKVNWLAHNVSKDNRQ
UniProt P48736, whole entry: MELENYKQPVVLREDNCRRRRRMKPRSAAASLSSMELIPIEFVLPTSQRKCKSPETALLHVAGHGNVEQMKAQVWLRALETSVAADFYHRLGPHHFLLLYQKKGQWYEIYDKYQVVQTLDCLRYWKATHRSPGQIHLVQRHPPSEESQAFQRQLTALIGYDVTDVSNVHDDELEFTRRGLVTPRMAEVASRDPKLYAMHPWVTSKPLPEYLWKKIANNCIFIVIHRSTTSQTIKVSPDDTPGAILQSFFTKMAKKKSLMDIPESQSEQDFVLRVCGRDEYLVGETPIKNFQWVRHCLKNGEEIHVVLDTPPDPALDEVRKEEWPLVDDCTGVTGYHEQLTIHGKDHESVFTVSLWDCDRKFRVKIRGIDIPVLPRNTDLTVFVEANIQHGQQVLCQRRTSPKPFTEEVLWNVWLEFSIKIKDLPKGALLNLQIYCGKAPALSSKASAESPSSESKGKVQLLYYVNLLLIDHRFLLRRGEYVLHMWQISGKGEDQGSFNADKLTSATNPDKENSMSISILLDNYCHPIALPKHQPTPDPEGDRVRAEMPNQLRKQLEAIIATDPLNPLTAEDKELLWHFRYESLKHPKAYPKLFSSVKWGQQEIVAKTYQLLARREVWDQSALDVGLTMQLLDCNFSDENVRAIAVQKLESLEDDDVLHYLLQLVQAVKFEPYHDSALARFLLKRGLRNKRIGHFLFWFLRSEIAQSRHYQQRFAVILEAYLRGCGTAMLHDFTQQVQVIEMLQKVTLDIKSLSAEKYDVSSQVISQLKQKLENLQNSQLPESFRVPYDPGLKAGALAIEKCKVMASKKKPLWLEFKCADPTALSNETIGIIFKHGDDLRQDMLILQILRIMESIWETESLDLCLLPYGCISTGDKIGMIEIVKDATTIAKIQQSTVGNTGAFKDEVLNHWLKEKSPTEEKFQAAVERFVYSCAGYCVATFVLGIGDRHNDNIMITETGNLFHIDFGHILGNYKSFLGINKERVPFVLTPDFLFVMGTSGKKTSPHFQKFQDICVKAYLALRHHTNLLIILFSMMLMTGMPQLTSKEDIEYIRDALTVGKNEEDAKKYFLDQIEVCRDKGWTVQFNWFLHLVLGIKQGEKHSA
UniProt P42336, whole entry: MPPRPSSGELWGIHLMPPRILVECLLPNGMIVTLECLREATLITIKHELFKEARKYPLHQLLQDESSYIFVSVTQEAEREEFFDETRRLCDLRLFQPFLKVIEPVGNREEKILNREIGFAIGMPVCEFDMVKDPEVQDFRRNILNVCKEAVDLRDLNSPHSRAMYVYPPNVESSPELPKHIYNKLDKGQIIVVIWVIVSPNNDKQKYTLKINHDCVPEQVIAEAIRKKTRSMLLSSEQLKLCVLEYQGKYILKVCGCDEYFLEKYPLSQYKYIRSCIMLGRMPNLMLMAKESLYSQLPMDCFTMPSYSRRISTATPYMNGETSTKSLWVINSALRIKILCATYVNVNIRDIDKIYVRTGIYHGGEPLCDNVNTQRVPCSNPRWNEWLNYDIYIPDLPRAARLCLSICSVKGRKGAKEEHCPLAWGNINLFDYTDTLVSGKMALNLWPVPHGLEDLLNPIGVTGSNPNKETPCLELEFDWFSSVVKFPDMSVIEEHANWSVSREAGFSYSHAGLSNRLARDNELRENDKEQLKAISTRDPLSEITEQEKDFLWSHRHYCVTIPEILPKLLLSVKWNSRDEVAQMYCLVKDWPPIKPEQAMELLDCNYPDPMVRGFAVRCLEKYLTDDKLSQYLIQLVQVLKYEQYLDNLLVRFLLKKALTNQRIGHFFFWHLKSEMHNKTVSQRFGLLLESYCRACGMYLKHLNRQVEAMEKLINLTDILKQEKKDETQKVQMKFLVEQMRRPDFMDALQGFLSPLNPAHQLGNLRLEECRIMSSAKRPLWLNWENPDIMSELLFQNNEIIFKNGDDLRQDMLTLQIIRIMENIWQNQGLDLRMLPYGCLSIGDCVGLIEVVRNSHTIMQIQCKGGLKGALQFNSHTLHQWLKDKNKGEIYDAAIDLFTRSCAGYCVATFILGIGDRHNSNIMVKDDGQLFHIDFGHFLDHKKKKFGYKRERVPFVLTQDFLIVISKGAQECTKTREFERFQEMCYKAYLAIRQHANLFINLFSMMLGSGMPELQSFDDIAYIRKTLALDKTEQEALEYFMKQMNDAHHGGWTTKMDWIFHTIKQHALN
UniProt P42338, whole entry: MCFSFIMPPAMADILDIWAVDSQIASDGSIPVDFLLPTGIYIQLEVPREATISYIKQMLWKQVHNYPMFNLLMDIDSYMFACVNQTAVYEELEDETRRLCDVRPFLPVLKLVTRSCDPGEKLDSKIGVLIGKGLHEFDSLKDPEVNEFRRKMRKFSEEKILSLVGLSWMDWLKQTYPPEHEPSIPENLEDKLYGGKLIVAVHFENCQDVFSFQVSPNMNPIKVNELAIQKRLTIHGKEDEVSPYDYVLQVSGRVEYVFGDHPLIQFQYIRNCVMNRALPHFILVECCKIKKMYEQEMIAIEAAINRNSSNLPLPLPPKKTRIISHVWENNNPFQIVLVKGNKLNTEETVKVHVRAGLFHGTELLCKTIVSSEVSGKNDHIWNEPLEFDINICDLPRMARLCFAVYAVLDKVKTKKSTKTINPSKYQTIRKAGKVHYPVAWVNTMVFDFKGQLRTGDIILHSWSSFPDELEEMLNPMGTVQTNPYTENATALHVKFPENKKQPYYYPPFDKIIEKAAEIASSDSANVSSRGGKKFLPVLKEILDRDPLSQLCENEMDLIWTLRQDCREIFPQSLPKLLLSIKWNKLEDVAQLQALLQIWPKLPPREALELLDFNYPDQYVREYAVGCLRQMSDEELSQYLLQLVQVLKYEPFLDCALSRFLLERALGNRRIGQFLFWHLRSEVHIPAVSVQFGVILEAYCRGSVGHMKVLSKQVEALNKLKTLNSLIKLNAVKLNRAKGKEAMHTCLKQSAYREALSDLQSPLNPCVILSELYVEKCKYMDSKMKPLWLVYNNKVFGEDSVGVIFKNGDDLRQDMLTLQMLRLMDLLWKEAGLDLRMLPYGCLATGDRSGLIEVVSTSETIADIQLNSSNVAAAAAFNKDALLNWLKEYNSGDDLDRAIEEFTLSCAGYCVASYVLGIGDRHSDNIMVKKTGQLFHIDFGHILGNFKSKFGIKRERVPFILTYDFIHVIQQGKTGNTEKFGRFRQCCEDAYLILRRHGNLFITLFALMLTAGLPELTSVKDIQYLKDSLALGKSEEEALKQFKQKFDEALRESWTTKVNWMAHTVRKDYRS
UniProt P27986, whole entry partner: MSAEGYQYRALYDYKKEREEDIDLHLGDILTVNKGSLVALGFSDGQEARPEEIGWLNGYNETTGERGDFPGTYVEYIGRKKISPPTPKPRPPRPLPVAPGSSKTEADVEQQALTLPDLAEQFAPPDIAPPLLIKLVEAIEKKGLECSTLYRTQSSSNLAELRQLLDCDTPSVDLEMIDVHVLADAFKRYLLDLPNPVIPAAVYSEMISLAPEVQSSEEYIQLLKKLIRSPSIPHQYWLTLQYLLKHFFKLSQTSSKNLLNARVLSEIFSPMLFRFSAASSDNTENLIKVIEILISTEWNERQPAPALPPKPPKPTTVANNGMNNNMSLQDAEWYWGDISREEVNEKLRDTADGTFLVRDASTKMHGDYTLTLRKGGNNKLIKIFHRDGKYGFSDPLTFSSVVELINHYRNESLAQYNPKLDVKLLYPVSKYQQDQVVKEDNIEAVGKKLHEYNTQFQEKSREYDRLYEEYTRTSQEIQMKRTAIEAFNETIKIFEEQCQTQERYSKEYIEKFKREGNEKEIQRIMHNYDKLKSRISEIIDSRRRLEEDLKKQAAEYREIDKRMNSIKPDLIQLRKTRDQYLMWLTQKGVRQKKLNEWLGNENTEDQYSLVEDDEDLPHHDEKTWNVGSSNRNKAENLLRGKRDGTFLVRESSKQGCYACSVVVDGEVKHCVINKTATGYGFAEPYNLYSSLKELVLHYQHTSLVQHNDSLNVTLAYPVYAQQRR

For one experiment, the target named is PI3Kδ (Homo sapiens, UniProt O00329). The note with it: read-out: Cell-free inhibitory IC50 PI3Kδ; ATP 25 μM; average of triple tests.
Another experiment has as its target PI3Kγ (Homo sapiens, UniProt P48736). The note with it: read-out: Cell-free inhibitory IC50 PI3Kγ; ATP 25 μM; average of triple tests.
For another experiment, the target named is PI3Kα (Homo sapiens, UniProt P42336). The note with it: read-out: Cell-free inhibitory IC50 PI3Kα; ATP 25 μM; average of triple tests.
A further experiment addresses PI3Kβ (Homo sapiens, UniProt P42338). Conditions: read-out: Cell-free inhibitory IC50 PI3Kβ; ATP 25 μM; average of triple tests.

From PMC8800018, “Discovery of novel selective PI3Kγ inhibitors through combining machine learning-based virtual screening with multiple protein structures and bio-evaluation” (Journal of Advanced Research, 2021) come the findings set out here.

Broadly, the IC50 is the concentration that gives 50% inhibition. Turning to `CC(=O)c1ccc2c(c1)c1cc(C(C)=O)ccc1n2C`, the IC50 at PI3Kδ was greater than 20 µM; on PI3Kγ, 7.49 µM; on PI3Kα, 11.3 µM; on PI3Kβ, greater than 20 µM.
